For the test, the system named is human neutrophils. The experiment in a line: Neutrophil migration assay. The class given is cell-based. As for the experimental part:
G Protein-Coupled Receptor 43 (GPR43) was described as an essential player in the process of neutrophil recruitment during intestinal inflammation.
The effect of agonists or antagonists for GPR43 can therefore be assayed in a neutrophil migration test. In the neutrophil migration assay, neutrophils, isolated from buffy coats from human volunteers, are treated with a compound for 30 minutes. Subsequently, the neutrophils are transferred to the upper wells of a Corning HTS transwell 96 permeable support system, of which the lower wells are filled with a sodium acetate solution.
The ACD buffer consists of 140 mM citric acid, 200 mM sodium citrate and 220 mM dextrose. The 6% dextran/0.9% NaCl solution consists of 15 g dextran T2000 and 2.25 g NaCl dissolved in 250 mL H2O.
A human buffy coat is diluted with an equal volume of ice cold DPBS. 20 mL of the diluted buffy coat is gently mixed with 4 mL of ACD buffer. Then, 12 mL of the 6% dextran/0.9% NaCl solution is added to the mixture and the samples are inverted gently up to 20 times. […]
A cell suspension of 8.9×10^6 cells per milliliter is prepared. […] 170 μL of cell lysate is then transferred to a white 96-well plate and luminescence is measured. The detected luminescent signal is considered as linearly related to the number of migrated cells.

Molecules are shown by their SMILES. pEC50: −log10 of the molar value. Like-named read-outs stand apart in the source and are kept apart here.

On to `CC1(C(=O)N(CCCC(=O)O)Cc2cccc(Cl)c2)CCN1C(=O)c1csc2ccccc12` (centres unmarked) [Compound 146, 4-[[1-(Benzo[b]thiophene-3-carbonyl)-2-methyl-azetidine-2-carbonyl]-(3-chloro-benzyl)-amino]-butyric acid], for which the pEC50 (neutrophils from human buffy coat, migration towards sodium acetate, read-out: human neutrophil migration inhibition EC50) was 7.00 to 11.00.

In the case of `C[C@]1(C(=O)N(CCCC(=O)O)Cc2cccc(Cl)c2)CCN1C(=O)c1csc2ccccc12` [Compound 191, 4-[[(R)-1-(Benzo[b]thiophene-3-carbonyl)-2-methyl-azetidine-2-carbonyl](3-chloro-benzyl)-amino]-butyric acid], the EC50 (Homo sapiens, read-out: human neutrophil migration inhibition EC50 (nM)) was 0.01 to 100 nM.

Source of the values: patent US8759334B2, “Compounds useful for the treatment of metabolic and inflammatory diseases” (Galapagos NV, priority 2011, dated 2014).
